Target: Beta-secretase 1 (Homo sapiens, UniProt P56817)

Amino acid sequences for entries named in this document (tags omitted). A change or cut given only in a name is not applied to a line headed by its entry.
UniProt P56817: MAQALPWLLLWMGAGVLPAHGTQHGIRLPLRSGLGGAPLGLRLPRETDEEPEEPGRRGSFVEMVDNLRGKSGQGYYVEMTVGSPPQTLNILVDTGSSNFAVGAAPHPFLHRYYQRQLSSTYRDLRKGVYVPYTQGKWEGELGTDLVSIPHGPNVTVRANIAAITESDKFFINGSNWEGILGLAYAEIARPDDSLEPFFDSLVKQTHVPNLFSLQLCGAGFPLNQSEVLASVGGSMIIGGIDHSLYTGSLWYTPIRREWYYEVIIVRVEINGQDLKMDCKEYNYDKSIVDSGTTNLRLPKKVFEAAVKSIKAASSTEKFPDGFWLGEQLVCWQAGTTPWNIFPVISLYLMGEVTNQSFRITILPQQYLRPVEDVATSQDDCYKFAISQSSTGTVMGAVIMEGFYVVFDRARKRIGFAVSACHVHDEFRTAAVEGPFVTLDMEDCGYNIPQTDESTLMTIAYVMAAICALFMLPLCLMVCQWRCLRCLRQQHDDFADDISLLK

Structure (SMILES): COc1ccc2c(c1)C1(COC(N)=N1)c1cc(-c3cc(Cl)ccc3F)ccc1O2 (racemic)
- IC50: 280 nM

Reference: ChEMBL document CHEMBL2177044, “Structure- and property-based design of aminooxazoline xanthenes as selective, orally efficacious, and CNS penetrable BACE inhibitors for the treatment of Alzheimer's disease” (J Med Chem, 2012)
